Article PMC11005723, “Development of Complementary Photo‐arginine/lysine to Promote Discovery of Arg/Lys hPTMs Interactomes” (Advanced Science, 2024)

Experiments:
HEK 293T nuclear lysate = test: Pull‐down by diazirine labeled peptides with western blot; assay type: binding, human; conditions: 10 µµ peptide probe, UV crosslinking, n = 2
Description: The protocol refers to SILAC‐based pull‐down assay with the following modifications. HEK293T cells were plated in normal DMEM medium and the protocol of nuclear lysate extraction is as same as SILAC‐based assay. After incubating and crosslinking with 10 µµ peptides probes, the whole protein in each group was precipitated and resolved in 1% SDS PBS buffer. Then peptides trapped protein was enriched with 50 µL high‐capacity streptavidin agarose resin separately. The enriched protein on beads were released in 4X Laemmli sample buffer by heating at 98 °C for 20 min. At last, the samples were run on a 4–12% bis‐tris SDS‐PAGE gel and analyzed by western blot. The assay was done two times to confirm results.

MSH6PWWP = test: In vitro MSH6PWWP domain photo‐labeling by probes; assay type: binding; conditions: probe 10 µM, MSH6PWWP 2 µM, 30 min 4 °C, 365 nm 20 min, streptavidin‐HRP blot; n = 2
Description: The samples were irradiated at 365 nm for 20 min. 4 × Laemmli sample buffer was added (final diluted to 1 ×) and heated at 98 °C for 5 min. The samples were run on a 4–12% bis‐tris SDS‐PAGE gel and analyzed by western blot (detected by Streptavidin (HRP) anti‐biotin).

## probe 1: H3 peptide probe, photo‐arginine at R2, unmodified K4, K(biotin)
HEK 293T nuclear lysate
  proteins enriched in pull‐down (western blot): RBBP4/7 were enriched

## probe 2: H3 peptide probe, photo‐arginine at R2, K4me3, K(biotin)
HEK 293T nuclear lysate
  proteins enriched in pull‐down (western blot): SPIN1, ING2 and WDR5 were enriched

## probe 4: H3R2me2a peptide probe with δ‐photo‐lysine at K4 and K(biotin)
MSH6PWWP
  covalent labeling of MSH6PWWP domain: more efficiently covalently labeled
